From ChEMBL document CHEMBL5726155, “1,3-thiazol-2-yl substituted benzamides” (2019)

Biological target: T1, P2X purinoceptor 2 (Homo sapiens, UniProt Q9UBL9)
T1 sequence (Q9UBL9 whole entry): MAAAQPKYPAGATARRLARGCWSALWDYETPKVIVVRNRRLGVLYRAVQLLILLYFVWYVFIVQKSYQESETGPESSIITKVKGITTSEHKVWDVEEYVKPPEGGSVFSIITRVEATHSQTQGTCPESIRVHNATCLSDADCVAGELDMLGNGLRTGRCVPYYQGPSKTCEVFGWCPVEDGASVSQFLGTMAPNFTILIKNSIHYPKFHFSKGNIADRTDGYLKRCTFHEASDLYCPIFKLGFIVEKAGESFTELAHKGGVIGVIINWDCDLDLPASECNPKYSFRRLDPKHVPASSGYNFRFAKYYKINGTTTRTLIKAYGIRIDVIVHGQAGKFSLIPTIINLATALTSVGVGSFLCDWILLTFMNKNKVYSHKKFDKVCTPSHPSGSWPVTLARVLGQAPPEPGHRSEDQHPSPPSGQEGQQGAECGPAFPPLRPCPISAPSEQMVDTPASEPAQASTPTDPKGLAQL

Structure (SMILES)	IC50 [nM]
Cc1cnc(-c2cc(O[C@H]3CCOC3)cc(C(=O)NC(C)c3nnc(C(F)(F)F)s3)c2)s1 (single isomer, unassigned; form 1)	10000
Cc1cnc(-c2cc(O[C@@H]3CCOC3)cc(C(=O)NC(C)c3nnc(C(F)(F)F)s3)c2)s1 (single isomer, unassigned; form 1)	10000

Stronger by IC50, values ahead:

IC50 [nM]	Structure (SMILES)
546	Cc1cnc(-c2cc(O[C@H]3CCOC3)cc(C(=O)NC(C)c3nnc(C(F)(F)F)s3)c2)s1 (single isomer, unassigned; form 2)
310	Cc1cnc(-c2cc(OCC3(F)CCCN(C)C3)cc(C(=O)N[C@H](C)c3cnc(C(F)(F)F)nc3)c2)s1 (single isomer, unassigned; form 2)
245	Cc1cnc(-c2cc(O[C@@H]3CCOC3)cc(C(=O)NC(C)c3nnc(C(F)(F)F)s3)c2)s1 (single isomer, unassigned; form 2)
